This assay deals with Replicase polyprotein 1ab (Severe acute respiratory syndrome coronavirus 2, UniProt P0DTD1). The experiment in a line: biochemical. It counts as functional.

The source of these data is ChEMBL document CHEMBL4495564, “Identification of inhibitors of SARS-Cov2 M-Pro enzymatic activity using a small molecule repurposing screen” (2020).

`O=C1C(Cl)=C(N2CCOCC2)C(=O)N1c1ccc(Cl)c(Cl)c1`: inhibition was half-maximal at 4.53 µM (IC50).

A word on the IC50: it is the concentration that inhibits the measured activity by half.
